Measurements: patent US8710082B2, “Benzimidazole inhibition of biofilm formation” (priority 2011, dated 2014)

COc1ccc2[nH]c(SCc3ccc(C)cc3)nc2c1 [ABC-1, 5-methoxy-2-[(4-methylbenzyl)sulfanyl]-1H-benzimidazole]
reduction of biofilm formation on coated surface (V. cholerae): at least 50% | reduction of biofilm formation on coated surface (P. aeruginosa CF-145): at least 50%
